These are literature values, as cited in US8110657B2, “Polypeptides and polynucleotides for enhancing immune reactivity to HER-2 protein” (priority 1999, dated 2012).

This data set deals with metastatic, HER-2-overexpressing breast cancers. To be noted: combined with cytotoxic chemotherapeutics; cited from earlier work.

Take Trastuzumab: the survival entry was “improve survival”.
